Conditions: in n-butanol, 308.15 K

- solubility (mole fraction): 0.0251
Compound: O=Cc1ccc([N+](=O)[O-])cc1

— BigSolDB 2.1
